This is an account of results in paper PMC4011867 (PLoS ONE, 2014).

For this assay, the system named is A. pisum native nAChRs, [125I]-alpha-bungarotoxin binding sites (alpha-Bgt-sensitive). Kind of assay: […]-alpha-Bgt competition binding, filtration. The following applies: read-out: [^125I]-α-Bgt / Bmax (fmol/mg) / [^125I]- α-Bgt / IC50, PBS pH 7.2, 0.1% BSA, room temperature, 4 h, low-affinity site.

Read-outs that look alike come from different tables or passages of the source.

For the molecule `CN/C(=N\[N+](=O)[O-])NCc1cnc(Cl)s1` [clothianidin], under “0.08 nM [125I]-alpha-Bgt”, the IC50 was found to be 194 nM. Consider `O=[N+]([O-])N=C1NCCN1Cc1ccc(Cl)nc1` [imidacloprid], for which the IC50 (0.6 nM [125I]-alpha-Bgt) was 22300 nM.

`CN1COCN(Cc2cnc(Cl)s2)C1=N[N+](=O)[O-]` [thiamethoxam]: the IC50 (0.08 nM [125I]-alpha-Bgt) amounted to 1640 nM.
